# Reference: PubChem BioAssay (Tox21)
# The entries are a selection whose mix differs from that of the whole data set. Records with an inconclusive call do not appear. Activity calls are given as the source filed them. Calls follow the shape of the dose curve; as a rule, active = well fitted cell-killing curve with a large enough effect in the repeat runs; inconclusive = weak or mixed curves; inactive = no such curve, though single readings can be large or run the other way.
# Experiment: qHTS assay to identify small molecule agonists of the peroxisome proliferator-activated receptor delta (PPARd) signaling pathway - cell viability counter screen (AID 743211); also: nearly all actives have a fitted effect of over 55% in size
# Settings: PPARd-bla HEK293H viability, CellTiter-Glo luminescence, 17 h; series mostly up to 62.6 µM; activity change, negative = cytotoxicity: at the top concentration
# Excerpt: U.S. Tox21 Program National Center for Advancing Translational Sciences [NCATS] NIH Chemical Genomics Center [NCGC] U.S. Environmental Protection Agency [EPA] National Institutes of Environmental Health Sciences [NIEHS] National Toxicology Program [NTP] U.S. Food and Drug Administration [FDA] Tox21 Assay Overview: The peroxisome proliferator-activated receptors (PPARs) are lipid-activated transcription factors of the nuclear receptor superfamily with three distinct subtypes namely PPAR alpha, PPAR delta (PPARd) and PPAR gamma. All these subtypes heterodimerizes with Retinoid X receptor (RXR) and have different physiological functions. […] To identify the compounds that activate PPAR-delta signaling, GeneBLAzer PPAR delta UAS-bla HEK293H cell line (Invitrogen, Carlsbad, CA, USA) containing a beta-lactamase reporter gene under the control of an Upstream Activator Sequence (UAS) was used to screen the Tox21 compound library. The cytotoxicity of the Tox21 compound library against the PPARd-bla cell line was tested in parallel by measuring the cell viability using CellTiter-Glo assay (Promega, Madison, WI) in the same wells.
# Tox21 Assay Protocol Summary: PPARd-bla cells were dispensed at 3000 cells/6uL/well in 1536-well black wall/clear bottom plates using a Multidrop Combi (Thermo Fisher Scientific, Waltham, MA) dispenser. After the assay plates were incubated at 37 C and 5% CO2 for 5 h, 23 nL of compounds dissolved in DMSO, positive controls or DMSO only was transferred to the assay plate by a Pintool station (Kalypsys, San Diego, CA). The assay plates were incubated at 37C for 17 h. After 1 uL of LiveBLAzerTM B/G FRET substrate was added using a Bioraptr Flying Reagent Dispenser (FRD) workstation (Beckman Coulter, Indianapolis, IN, USA), the plates were incubated at room temperature for 2 h, and fluorescence intensity was measured by an Envision plate reader (PerkinElmer, Shelton, CT). For cell viability readout that measures cytotoxicity, 3 ul/well of CellTiter-Glo reagent was added into the assay plates using a Bioraptr FRD. After 30 min incubation at room temperature, the luminescence intensity in the plates was measured using a ViewLux plate reader (PerkinElmer).
# % is scaled to controls: 0 for no effect and ±100 for the full control effect; potency is read from the fitted curve at half-maximal effect.
Compound,"activity change, negative = cytotoxicity",Potency
CCNC(C)Cc1ccc2c(c1)OCO2 (stereo unspecified),inactive: 3.35% [at 81.1 µM],
CCOC(=O)Cl,inactive: 0.817%,
NC(=O)Nc1ccc([As](=O)(O)O)cc1,,inactive
CN(C(=O)Cc1ccc(Cl)c(Cl)c1)[C@H]1CC[C@@]2(CCCO2)C[C@@H]1N1CCCC1,inactive: -10.6%,
O=[As]c1ccccc1 (stereo unspecified),,active: 0.616 µM
CCCCC(CC)CO[P+](=O)OCC(CC)CCCC (stereo unspecified),inactive: -0.688%,
CN(C(=O)Cc1cccc2occc12)[C@H]1CC[C@@]2(CCCO2)C[C@@H]1N1CCCC1,inactive: 0.444%,
ClP(Cl)c1ccccc1,inactive: 14.3%,
O=P(Cl)(Oc1ccccc1)Oc1ccccc1,inactive: 1.32%,
COP(=S)(Cl)OC,inactive: -4.72% [at 81.1 µM],
CCOP(=S)(CC)Sc1ccccc1 (stereo unspecified),inactive: 1.46%,
COC(=O)Cl,inactive: 3.55%,
CCCCO[P+](=O)OCCCC,,inactive
O=[P+](Oc1ccccc1)Oc1ccccc1,inactive: -1.05%,
CN(C(=O)Cc1ccccc1)[C@H]1CC[C@@]2(CCCO2)C[C@@H]1N1CCCC1,inactive: 1.89%,
O=[N+]([O-])c1ccc(S(=O)(=O)O)c([N+](=O)[O-])c1,inactive: -0.701% [at 81.1 µM],
CC(C)CCCCCCCOP(OCCCCCCCC(C)C)Oc1ccccc1,inactive: -21.6%,
O=P(Cl)(Cl)c1ccccc1,inactive: 5.92%,
CN(N=O)C(=N)N[N+](=O)[O-],inactive: -0.46%,
O=[p+]1oc2ccccc2c2ccccc21 (stereo unspecified),inactive: -0.435%,
Cc1cc([N+](=O)[O-])c(O)c([N+](=O)[O-])c1,inactive: -9.8% [at 81.1 µM],
